From patent publication US7759392B2, “Pharmaceutical compounds” (Nicox S.A., priority 1999, dated 2010) come the findings set out here.

For the series, the system named is gastrointestinal mucosa. As to conditions: rat, in vivo.

For the compound `NCCCC(O)(P(=O)(O)O)P(=O)(O)O` [Alendronate, sodic alendronate], the “Gastro-enteropathy (% incidence) without NEM” value turned out to be 0% and the “gastrointestinal damages / gastric lesions in rats treated with NEM + drug (in words)” value is recorded as “showed gastric lesions”.
